Chains of the proteins cited; added tags and fusions are not shown.
UniProt P31652, whole entry: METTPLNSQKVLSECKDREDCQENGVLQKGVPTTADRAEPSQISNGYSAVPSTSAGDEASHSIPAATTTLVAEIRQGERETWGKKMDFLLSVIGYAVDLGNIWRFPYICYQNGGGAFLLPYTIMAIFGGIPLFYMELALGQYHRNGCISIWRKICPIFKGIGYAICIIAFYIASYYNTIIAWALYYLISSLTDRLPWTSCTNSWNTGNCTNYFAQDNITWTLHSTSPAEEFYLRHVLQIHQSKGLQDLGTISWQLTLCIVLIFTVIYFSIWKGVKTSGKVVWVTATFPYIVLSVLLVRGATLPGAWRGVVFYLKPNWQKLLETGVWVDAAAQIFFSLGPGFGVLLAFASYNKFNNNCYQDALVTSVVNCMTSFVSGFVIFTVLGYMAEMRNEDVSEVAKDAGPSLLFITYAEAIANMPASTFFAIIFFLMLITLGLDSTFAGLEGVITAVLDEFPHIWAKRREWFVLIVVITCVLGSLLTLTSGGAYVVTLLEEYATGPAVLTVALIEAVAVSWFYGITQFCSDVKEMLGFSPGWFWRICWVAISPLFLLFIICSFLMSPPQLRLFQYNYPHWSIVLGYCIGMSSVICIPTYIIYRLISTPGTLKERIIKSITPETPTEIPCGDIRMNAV

In paper PMC9301952 (ACS Omega, 2022):

Molecular target: rSERT (Rattus norvegicus, UniProt P31652)
Experiment: [3H]5-HT uptake inhibition in rat brain synaptosomes

With COC(=O)[C@H]1[C@@H](OC(=O)c2ccccc2)C[C@@H]2CC[C@H]1N2C [Cocaine] the IC50 was 263 nM.
